Results on one molecule are retold here after EP4778941A1 (Jiangsu Hengrui Pharmaceuticals Co., Ltd., dated 2025).

The chains behind the UniProt entries cited, without tags or fusion partners. Residues count along the entry.
UniProt P08581, 25-932 limits assumed: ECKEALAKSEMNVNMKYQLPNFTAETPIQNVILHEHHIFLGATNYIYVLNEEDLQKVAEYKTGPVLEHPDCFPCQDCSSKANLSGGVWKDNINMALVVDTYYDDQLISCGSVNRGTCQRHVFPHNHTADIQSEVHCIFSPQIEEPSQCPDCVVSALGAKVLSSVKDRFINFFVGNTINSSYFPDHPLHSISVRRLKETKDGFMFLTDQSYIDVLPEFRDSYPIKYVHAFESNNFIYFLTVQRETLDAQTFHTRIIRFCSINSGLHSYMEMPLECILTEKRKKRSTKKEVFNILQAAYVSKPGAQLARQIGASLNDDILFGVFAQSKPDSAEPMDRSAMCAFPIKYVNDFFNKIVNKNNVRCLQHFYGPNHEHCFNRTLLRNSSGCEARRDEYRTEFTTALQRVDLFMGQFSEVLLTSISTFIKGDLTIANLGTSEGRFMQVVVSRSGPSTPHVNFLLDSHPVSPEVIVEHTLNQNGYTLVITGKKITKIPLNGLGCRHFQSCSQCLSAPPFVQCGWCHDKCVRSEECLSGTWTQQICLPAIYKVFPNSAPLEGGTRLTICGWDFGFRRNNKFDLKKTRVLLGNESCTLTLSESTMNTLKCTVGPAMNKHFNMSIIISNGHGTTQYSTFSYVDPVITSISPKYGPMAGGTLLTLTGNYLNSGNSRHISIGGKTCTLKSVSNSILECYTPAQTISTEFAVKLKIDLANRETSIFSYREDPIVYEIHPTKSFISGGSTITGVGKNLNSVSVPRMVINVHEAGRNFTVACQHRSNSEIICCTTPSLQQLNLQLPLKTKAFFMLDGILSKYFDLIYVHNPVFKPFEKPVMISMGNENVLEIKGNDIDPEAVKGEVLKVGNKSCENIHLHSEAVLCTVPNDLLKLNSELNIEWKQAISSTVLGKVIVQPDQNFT

The target of test [1] is T1, His-tagged human MET antigen (human, UniProt P08581 25-932).
T1 construct: Soluble antigen used as analyte in SPR; not shown: His tag
The test can be described thus: SPR, Biacore 8K, protein A chip; ADC captured, His-tagged antigen 6.25-400 nM as analyte; 1:1 Langmuir.

In test [2] the target is T2, His-tagged human HER3 antigen (human, UniProt P21860 20-643).
T2 construct: Soluble antigen used as analyte in SPR; not shown: His tag
The test is described as above.

B1: Anti-HER3/MET antibody-drug conjugate ADC-1 (bispecific antibody)
heavy 1: not shown
light 1: DIQMTQSPSSVSASVGDRVTITCRASQGINTWLAWYQQKPGKAPKLLIYAASSLKSGVPSRFSGSGSGADFTLTISSLQPEDFATYYCQQANSFPLTFGGGTKVEIKGGGGSGIPPKIECLPIDISIDEGKVLTVASAFTGEPTPEVTWSTGGRKIHSQEQGRFHIENTDDSTTLTIKDVQKQDGGLYTLTLRNEFGSDSATVNIHIRSI
heavy 2: QVQLVQSGGGLVQPGRSLRLSCAASGFTFDDYAMHWVRQAPGKGLEWVSGISWNSGSIGYADSVKGRFTISRDNAKNSLYLQMNSLRAEDTALYYCAKEGLPGLDYWGQGTLVTVSSASTKGPSVFPLAPSSKSTSGGTAALGCLVKDYFPEPVTVSWNSGALTSGVHTFPAVLQSSGLYSLSSVVTVPSSSLGTQTYICNVNHKPSNTKVDKKVEPKSCDKTHTCPPCPAPELLGGPSVFLFPPKPKDTLMISRTPEVTCVVVDVSHEDPEVKFNWYVDGVEVHNAKTKPREEQYNSTYRVVSVLTVLHQDWLNGKEYKCKVSNKALPAPIEKTISKAKGQPREPQVCTLPPSREEMTKNQVSLSCAVKGFYPSDIAVEWESNGQPENNYKTTPPVLDSDGSFFLVSKLTVDKSRWQQGNVFSCSVMHEALHNHYTQKSLSLSPGK
light 2: DIQMTQSPSSLSASIGDRATITCRASQHVGTYLNWYQQKPGKTPKLLISGAANLQSGVPSRFSGSGSGTDFTLTISSLQPEDFATYYCQQSYNTPPFSFGQGTKVEIKRTVAAPSVFIFPPSDEQLKSGTASVVCLLNNFYPREAKVQWKVDNALQSGNSQESVTEQDSKDSTYSLSSTLTLSKADYEKHKVYACEVTHQGLSSPVTKSFNRGEC
modifications: compound 9-A on reduced cysteines, positions not given; denaturing MS main peak HC2+3drug; no drug by denaturing MS (main peak LC1); compound 9-A on a reduced cysteine, position not stated; denaturing MS main peak LC2+1drug; compound 9-A (exatecan derivative linker-drug) on reduced cysteines, positions not given; denaturing MS main peak HC1+2drug
notes: target DAR 6, found DAR 5.90
Turning to B1, the Kd in test [1] was found to be 14.1 nM; in test [2] it was 19 nM.
